Results taken from ChEMBL document CHEMBL4406853 (Eur J Med Chem, 2019).

Chains of the proteins cited; added tags and fusions are not shown. Lines headed by an entry give the natural chain unless they say otherwise; changes in a name come on top.
UniProt P97266, whole entry: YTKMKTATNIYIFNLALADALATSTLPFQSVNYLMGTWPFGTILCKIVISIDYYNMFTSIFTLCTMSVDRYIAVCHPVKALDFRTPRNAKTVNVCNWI
UniProt P41144: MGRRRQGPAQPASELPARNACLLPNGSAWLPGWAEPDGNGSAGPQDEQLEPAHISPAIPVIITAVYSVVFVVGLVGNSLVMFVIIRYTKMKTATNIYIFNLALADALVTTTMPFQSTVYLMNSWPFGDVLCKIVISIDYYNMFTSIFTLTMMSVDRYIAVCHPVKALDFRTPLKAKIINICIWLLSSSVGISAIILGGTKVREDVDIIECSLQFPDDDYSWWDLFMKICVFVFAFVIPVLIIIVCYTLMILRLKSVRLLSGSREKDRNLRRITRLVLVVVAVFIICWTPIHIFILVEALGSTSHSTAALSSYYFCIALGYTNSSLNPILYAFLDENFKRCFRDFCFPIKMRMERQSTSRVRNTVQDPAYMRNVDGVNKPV

Experiments:
Cavia porcellus = species: Cavia porcellus; test: Agonist activity at delta opioid receptor in guinea pig brain membranes by [35S]-GTPgammaS binding assay relative to control; type: cell membranes
[1] = target: Mu-type opioid receptor (Cavia porcellus) (UniProt P97266); test: Agonist activity at mu opioid receptor in guinea pig brain membranes by [35S]-GTPgammaS binding assay relative to control; type: functional, cell membranes
[2] = target: Kappa-type opioid receptor (Cavia porcellus) (UniProt P41144); test: Agonist activity at kappa opioid receptor in guinea pig brain membranes by [35S]-GTPgammaS binding assay relative to control; type: functional, cell membranes

Measured: Emax

CC[C@@H]1CN2CC[C@@]3(O)C(=Nc4cccc(OC)c43)[C@@H]2C[C@@H]1/C(=C\OC)C(=O)OC
77%: Cavia porcellus | [1] | [2]
